The list shows a part of the results, in another mix than the full data. Active and inactive are the calls of the source.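 How the source made its calls: active means growth inhibition above 50% at the single 2 µM test dose, taken to imply half-maximal potency below 2 µM; inactive means the rest.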
experiment: antimalarial activity against Dd2 strain (AID 2302);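 further: 0% = DMSO untreated growth and 100% = chloroquine plus artemisinin killed control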; settings: P. falciparum Dd2 in RBCs, LDH growth readout, 72 h; at 2 µM; hits give high values

Compound	growth inhibition
CCN1CCCC1COC(=O)C(O)(c1ccc2c(c1)OCO2)c1ccc2c(c1)OCO2 (configuration not stated)	inactive: -1%
CCN1CCCC(OC(=O)C(O)(c2ccc3c(c2)OCO3)c2ccc3c(c2)OCO3)C1 (configuration not stated)	inactive: 7%

Reference: PubChem BioAssay AID2302 (GlaxoSmithKline (GSK), 2010)
